We go through two compounds from ChEMBL document CHEMBL5724803, “Viability screening in matched tumor and normal assay results for EUbOPEN Chemogenomics Library” (2024).

Each structure is given as a SMILES string.

For this experiment, the system named is Colon organoid. The class given is functional, Homo sapiens.

For `CC(=O)C1=C(C)N(c2cccc(C(F)(F)F)c2)C(=O)N[C@H]1c1ccc(C#N)nc1` [BAY-677], the “Cell Viability Ratio” value came to 1.109.
Take `CC(=O)C1=C(C)N(c2cccc(C(F)(F)F)c2)C(=O)N[C@@H]1c1ccc(C#N)nc1` [BAY-678]: the “Cell Viability Ratio” value is recorded as 0.9852.
